Target: LRRK2 (Homo sapiens, UniProt Q5S007, G2019S)
Experiment: In Vitro LRRK2 Assay (LabChip 3000, fluorescently-labeled peptide substrate, ATP)
Format: biochemical
Details: read-out: LRRK2 Ki (KI), Table 8

Sequences of proteins named here, by UniProt entry; tags and fusion partners are left off.
UniProt Q5S007, whole entry G2019S: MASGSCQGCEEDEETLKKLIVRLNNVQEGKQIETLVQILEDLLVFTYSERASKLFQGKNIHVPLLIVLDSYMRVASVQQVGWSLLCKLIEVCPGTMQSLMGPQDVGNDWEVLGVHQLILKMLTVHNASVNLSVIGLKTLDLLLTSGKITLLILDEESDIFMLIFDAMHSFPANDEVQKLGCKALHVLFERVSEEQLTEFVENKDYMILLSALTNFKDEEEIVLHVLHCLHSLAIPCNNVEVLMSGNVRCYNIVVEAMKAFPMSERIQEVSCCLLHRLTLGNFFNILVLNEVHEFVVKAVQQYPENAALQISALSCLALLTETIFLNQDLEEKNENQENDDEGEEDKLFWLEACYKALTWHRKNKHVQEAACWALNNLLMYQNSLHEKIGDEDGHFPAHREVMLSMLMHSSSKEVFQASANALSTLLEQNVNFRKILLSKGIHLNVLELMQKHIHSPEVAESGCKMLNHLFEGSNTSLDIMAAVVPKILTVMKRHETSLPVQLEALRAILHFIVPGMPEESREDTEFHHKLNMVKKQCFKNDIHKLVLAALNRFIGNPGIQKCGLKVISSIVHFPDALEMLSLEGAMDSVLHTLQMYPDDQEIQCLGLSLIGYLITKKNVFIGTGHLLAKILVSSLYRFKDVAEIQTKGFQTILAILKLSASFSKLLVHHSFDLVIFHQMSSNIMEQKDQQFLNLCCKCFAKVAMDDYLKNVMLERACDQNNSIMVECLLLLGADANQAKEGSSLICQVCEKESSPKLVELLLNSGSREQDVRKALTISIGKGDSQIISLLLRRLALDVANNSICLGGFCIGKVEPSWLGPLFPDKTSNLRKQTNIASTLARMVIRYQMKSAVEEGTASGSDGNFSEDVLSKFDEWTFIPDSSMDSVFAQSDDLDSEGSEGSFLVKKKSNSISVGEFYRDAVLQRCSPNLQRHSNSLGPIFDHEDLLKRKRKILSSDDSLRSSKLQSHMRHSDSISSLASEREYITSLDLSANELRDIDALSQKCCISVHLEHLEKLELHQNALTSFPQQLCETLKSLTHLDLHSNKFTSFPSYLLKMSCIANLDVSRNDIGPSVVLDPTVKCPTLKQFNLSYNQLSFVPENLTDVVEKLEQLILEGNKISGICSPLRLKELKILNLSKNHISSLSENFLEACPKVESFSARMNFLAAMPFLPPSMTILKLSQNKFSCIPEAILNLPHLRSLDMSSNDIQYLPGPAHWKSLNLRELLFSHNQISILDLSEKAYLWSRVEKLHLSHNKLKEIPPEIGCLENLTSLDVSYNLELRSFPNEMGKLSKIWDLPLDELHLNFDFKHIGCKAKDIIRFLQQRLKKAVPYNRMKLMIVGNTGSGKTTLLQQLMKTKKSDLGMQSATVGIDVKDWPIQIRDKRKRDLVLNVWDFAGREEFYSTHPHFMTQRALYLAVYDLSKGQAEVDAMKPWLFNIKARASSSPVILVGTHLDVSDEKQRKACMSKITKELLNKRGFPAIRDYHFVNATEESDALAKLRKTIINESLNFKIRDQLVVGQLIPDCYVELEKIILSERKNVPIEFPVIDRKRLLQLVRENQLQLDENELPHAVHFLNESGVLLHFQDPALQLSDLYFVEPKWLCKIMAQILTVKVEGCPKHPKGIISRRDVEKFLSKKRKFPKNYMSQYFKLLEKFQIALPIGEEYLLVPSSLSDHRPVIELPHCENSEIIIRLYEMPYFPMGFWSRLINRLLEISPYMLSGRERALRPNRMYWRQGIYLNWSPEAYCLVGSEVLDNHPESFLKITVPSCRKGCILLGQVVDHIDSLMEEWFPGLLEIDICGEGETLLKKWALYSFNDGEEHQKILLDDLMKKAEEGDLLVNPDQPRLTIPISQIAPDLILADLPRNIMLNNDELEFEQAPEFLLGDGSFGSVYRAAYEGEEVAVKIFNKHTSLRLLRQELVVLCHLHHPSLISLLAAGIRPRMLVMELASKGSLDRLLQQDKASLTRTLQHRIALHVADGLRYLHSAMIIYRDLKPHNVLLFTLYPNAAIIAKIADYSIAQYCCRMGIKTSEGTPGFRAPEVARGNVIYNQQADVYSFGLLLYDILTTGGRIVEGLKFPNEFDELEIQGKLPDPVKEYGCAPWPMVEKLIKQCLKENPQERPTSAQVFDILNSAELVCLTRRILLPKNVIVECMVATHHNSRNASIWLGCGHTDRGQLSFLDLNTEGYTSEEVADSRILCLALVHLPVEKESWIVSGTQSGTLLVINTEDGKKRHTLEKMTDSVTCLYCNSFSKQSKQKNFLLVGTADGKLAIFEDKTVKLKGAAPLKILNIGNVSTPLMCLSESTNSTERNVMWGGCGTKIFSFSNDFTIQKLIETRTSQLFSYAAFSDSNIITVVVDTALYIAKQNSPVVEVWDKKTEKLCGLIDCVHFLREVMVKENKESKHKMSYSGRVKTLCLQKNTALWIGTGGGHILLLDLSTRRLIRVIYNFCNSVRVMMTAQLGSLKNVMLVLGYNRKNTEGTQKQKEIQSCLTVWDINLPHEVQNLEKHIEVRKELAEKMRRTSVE

- Ki: 58 nM
Structure (SMILES): CNc1nc(Nc2cnn([C@H]3CCN(C4COC4)C3)c2C)ncc1C(F)(F)F
